Laboratory results taken from patent US20070185193A1, “Huvastatin and its preparation and formulation comprising the huvastatin” (HUAIBEI HUIKE PHARMACEUTICAL, CO. LTD., priority 2003, published 2007).

Target: T1, HMG-CoA reductase (Homo sapiens, UniProt P04035)
T1 sequence (P04035 1-888): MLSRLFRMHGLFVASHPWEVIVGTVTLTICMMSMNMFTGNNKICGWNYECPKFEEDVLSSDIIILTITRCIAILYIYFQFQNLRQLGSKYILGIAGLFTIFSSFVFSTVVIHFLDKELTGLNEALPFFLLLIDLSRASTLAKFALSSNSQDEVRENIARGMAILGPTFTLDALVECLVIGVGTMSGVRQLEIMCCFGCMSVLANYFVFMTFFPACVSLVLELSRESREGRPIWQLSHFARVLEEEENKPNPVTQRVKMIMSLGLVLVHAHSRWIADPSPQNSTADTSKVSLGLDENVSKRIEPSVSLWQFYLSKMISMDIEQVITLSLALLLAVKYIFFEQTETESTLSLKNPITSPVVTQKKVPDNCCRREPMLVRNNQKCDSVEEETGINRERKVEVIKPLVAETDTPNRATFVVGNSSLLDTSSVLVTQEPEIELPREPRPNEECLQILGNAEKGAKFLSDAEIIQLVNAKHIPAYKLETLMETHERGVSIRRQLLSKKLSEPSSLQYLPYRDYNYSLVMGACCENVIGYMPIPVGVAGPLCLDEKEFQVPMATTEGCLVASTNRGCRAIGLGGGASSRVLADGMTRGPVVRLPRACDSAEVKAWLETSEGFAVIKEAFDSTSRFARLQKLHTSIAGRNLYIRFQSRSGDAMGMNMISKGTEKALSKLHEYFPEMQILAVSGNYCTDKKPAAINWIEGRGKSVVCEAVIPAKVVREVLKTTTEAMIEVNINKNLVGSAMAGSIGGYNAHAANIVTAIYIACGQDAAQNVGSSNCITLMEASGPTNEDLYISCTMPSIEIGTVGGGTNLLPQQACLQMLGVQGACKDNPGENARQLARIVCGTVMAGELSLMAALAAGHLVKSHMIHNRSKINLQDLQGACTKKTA
Assay: Inhibiting constant Ki of statins with HMG-CoA (reductase), conventional methods
Format: biochemical

Row | SMILES | Ki [nM]
1 | CC(C)c1c(C(=O)Nc2ccccc2)c(-c2ccccc2)c(-c2ccc(F)cc2)n1CC[C@@H](O)C[C@@H](O)CC(=O)O [Atorvastatin, atorvastatin] | 8.2
2 | CC[C@H](C)C(=O)O[C@H]1C[C@H](O)C=C2C=C[C@H](C)[C@H](CC[C@@H](O)C[C@@H](O)CC(=O)O)[C@H]21 [Pravastatin, pravastatin] | 43
